PubChem BioAssay AID504614 (Sanford-Burnham Center for Chemical Genomics, 2011)
This is a selection; strong and weak results do not stand in their true shares. Calls of active or inactive are those of the source.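 Rule for the calls: active = mean inhibition of at least 40% at 20 µM; inactive = the rest.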

experiment: Apaf-1 inhibitors, single-dose retest, confirmation, biochemical, fluorescence, DEVD-Rh110, 20 µM (AID 504614); details: reconstituted apoptosome, caspase-3 DEVD-Rh110 fluorescence; at 20 µM; stronger effect = higher value;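 note: plate controls were DMSO wells for no effect and DEVD-CHO caspase inhibitor control wells for full effect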

Question: With CCc1nc2c(n1)c1c(non1O)c1c2no[n+]1[O-] as the compound, how does the inhibition read?
Answer: inactive: 7.46%
